# Assay type: physicochemical
# Details: perfusion medium recirculated 4 hours at 37°C in absence of placenta
substance,measurement,value
[^3H]-bupropion,chemical stability / radioactive damage,chemically stable

# Reference: PMC2873069 (The journal of maternal-fetal & neonatal medicine : the …, 2010)
